Reference: patent publication US8470855B2, “Dual-use peptidase inhibitors as prodrugs for a therapy of inflammatory and other diseases” (IMTM GmbH, priority 2005, dated 2013)
Where two headings read alike, the source gives them in different places.

By UniProt entry, the sequences of proteins in these tests, tags left out.
UniProt P15145, whole entry: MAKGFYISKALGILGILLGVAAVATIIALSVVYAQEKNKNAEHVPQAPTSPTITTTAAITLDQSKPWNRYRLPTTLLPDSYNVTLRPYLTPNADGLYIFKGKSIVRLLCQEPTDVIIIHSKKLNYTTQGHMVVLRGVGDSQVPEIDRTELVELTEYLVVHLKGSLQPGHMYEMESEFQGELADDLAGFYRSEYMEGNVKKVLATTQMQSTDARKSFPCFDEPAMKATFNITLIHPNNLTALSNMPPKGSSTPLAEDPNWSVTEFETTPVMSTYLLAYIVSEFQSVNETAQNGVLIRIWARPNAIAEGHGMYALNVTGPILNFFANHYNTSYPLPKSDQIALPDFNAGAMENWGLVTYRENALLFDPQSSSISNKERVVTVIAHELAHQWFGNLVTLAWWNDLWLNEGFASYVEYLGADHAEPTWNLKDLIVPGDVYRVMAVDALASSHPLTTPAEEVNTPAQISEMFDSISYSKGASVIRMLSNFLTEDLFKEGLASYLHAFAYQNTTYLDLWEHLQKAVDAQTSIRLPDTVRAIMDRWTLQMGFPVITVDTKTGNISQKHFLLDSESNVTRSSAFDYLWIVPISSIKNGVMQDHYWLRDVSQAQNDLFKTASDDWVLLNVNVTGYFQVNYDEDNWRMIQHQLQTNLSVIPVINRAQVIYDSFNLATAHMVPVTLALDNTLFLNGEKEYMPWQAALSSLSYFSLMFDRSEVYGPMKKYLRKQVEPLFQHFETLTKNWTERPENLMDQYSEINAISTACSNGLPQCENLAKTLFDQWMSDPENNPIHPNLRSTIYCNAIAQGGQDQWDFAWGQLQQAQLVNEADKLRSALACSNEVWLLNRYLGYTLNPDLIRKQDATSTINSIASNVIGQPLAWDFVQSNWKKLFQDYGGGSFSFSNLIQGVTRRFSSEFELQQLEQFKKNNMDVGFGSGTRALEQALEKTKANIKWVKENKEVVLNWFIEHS
UniProt P22411, whole entry: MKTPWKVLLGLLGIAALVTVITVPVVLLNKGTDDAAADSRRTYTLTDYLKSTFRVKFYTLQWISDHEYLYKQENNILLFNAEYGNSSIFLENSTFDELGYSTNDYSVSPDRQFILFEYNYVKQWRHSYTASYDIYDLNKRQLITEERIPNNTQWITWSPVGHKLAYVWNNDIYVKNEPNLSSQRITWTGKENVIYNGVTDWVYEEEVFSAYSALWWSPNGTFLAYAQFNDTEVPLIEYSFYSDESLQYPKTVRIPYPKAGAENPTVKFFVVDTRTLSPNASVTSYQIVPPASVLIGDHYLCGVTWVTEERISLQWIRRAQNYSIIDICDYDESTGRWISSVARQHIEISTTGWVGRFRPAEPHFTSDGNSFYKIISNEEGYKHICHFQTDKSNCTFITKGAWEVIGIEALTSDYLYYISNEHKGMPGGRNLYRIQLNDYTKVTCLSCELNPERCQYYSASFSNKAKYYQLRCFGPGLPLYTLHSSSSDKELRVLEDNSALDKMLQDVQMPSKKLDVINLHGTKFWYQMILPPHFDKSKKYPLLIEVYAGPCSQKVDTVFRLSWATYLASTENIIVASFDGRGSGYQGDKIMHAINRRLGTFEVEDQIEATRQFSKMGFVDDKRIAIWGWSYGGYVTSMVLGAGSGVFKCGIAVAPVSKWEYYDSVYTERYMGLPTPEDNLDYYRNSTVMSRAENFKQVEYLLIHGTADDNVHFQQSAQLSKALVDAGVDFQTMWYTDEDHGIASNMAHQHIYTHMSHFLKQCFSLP

Tests used:
[1] = molecular target: APN (Leucin aminopeptidase, microsomal, EC 3.4.11.2) (Sus scrofa, UniProt P15145); test: IC50 determination against APN after reduction of the prodrugs with DTT; settings: read-out: APN (IC 50 [M]), after release (reduction with DTT) of the inhibitors from the prodrugs, pig kidney enzyme, substrate Leu-AMC, pH 7.2, 30° C.
Experimental: (§1) Process of the Reduction with DTT:
(§2) Same volumes of the 7·10^−2 M solution of the inhibitor in water or DMF and a 0.35 M aqueous DTT-solution (5 equivalents) were agitated 4 hours at RT.
(§3) Subsequently to the reductive treatment of the prodrugs the IC50-values were estimated using the following process:
(§4) Determination of the IC50-Values after Reduction:
Leucin aminopeptidase, microsomal, from pig kidney (EC 3.4.11.2).
Suspension in 3.5 M (NH4)2SO4-solution (Sigma).
Substrate: Leu-AMC, [S]=1.5·10^−4 M (2 Km) in the reaction batch.
Buffer: 40 mM Tris/HCl-buffer, pH 7.2 in the reaction batch.
(§5) By dilution with water 10 to 12 solutions with defined inhibitor concentration were prepared from the reduction batch. These were selected from a relevant concentration range, i.e. between complete inhibition and non-influenced enzyme activity.
(§6) 60 μl of these inhibitor solutions each or water (standard), were incubated with 80 μl of the according diluted enzymes in buffer for 15 minutes at 30° C. and subsequently 60 μl of the according AMC-substrate in water (total volume 200 μl) were added. The release of the 7-Amino-4-methyl-cumarin was traced continuously over a period of 20 minutes at 30° C. using a fluorence-pladt-reader NOVOstar (BMG Labtechnologies). The enzyme concentration was chosen to give a linear increase of the fluorescence during the measuring period.
(§7) The excitation- and emission-wavelengths, respectively, were 390 and 460 nm. The measurements were performed in duplicates. The turn-over rates (increase of fluorescence/minutes) were plotted against the concentration of the inhibitor and the IC50-values were calculated using the computer program GraFit.
(§8) For comparison the IC50-values of established inhibitor against DPIV (H-Lys[Z(NO2)]-thiazolidide) and APN (actinonine) were estimated.

[2] = molecular target: Dipeptidyl peptidase IV (EC 3.4.14.5.) (Sus scrofa, UniProt P22411); test: IC50 determination against DP IV after reduction of the prodrugs with DTT; settings: read-out: DP IV (IC 50 [M]), after release (reduction with DTT) of the inhibitors from the prodrugs, pig kidney enzyme, substrate Ala-Pro-AMC, pH 7.6, 30° C.
Experimental: as §1, §2, §3, §4
Dipeptidyl peptidase IV from pig kidney (EC 3.4.14.5.), lyophilisated powder (Sigma).
Substrate: Ala-Pro-AMC, [S]=3·10^−5 M (2 Km) in the reaction batch.
Buffer: 40 mM Tris/HCl-buffer, pH 7.6, I=0.125 in the reaction batch.
as §5, §6, §7, §8

[3] = tested form: bis(trifluoroacetate)

SMILES | IC50 [1] [M] | IC50 [2] [M] | IC50 [1, 3] [M] | IC50 [2, 3] [M]
CC(C)(SSCC(N)Cc1ccccc1)C(N)C(=O)N1CCSC1 (stereo not drawn) | 1.08e-07 | 4.51e-06 |  | 
N[C@@H](CSSC[C@H](N)C(=O)N1CCSC1)C(=O)N1CCSC1 |  |  | 0.000108 | 8.07e-06
N[C@@H](CSSC[C@H](N)C(=O)N1CCCC1)C(=O)N1CCCC1 | 0.000184 | 2.25e-05 |  | 
